Biological target: CLR/RAMP1 (Rattus norvegicus, UniProt Q63118+Q9JJ74)
Test: pH dependency of 125I-CGRP binding to CLR/RAMP1 membranes
Details: 4°C, relative to pH 7.5 (100%)

The chains behind the UniProt entries cited, without tags or fusion partners. Residues count along the entry.
UniProt Q63118, 24-464: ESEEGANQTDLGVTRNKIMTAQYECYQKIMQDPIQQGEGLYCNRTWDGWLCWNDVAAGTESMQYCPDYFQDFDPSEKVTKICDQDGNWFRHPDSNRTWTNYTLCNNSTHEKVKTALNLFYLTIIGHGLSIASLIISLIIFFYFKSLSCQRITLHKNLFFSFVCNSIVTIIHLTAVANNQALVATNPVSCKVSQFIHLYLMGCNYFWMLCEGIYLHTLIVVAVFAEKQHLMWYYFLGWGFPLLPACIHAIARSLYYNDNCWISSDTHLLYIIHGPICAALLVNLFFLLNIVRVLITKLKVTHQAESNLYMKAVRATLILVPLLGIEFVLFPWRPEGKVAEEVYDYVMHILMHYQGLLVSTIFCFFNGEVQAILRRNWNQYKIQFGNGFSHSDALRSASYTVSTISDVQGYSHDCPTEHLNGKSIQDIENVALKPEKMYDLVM
UniProt Q9JJ74, 27-148: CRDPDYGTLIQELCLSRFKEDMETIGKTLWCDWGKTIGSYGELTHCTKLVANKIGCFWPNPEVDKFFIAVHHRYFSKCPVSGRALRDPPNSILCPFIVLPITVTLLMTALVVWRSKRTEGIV

Substance: ^125I-His^8-CGRP: ^125I-His^8 human CGRP from GE Healthcare
- Reduction of specific binding at pH 5.5 (MES buffer pH 5.5, 90 min): > 75%
- Reduction of specific binding at pH 6.0 (MES buffer pH 6.0, 90 min): > 30%
